# USP2a block = inhibitors of human ubiquitin-specific protease USP2a; AID 463254; Potency, µM (top dose mostly 38.3 µM), for inactives: top-dose activity change, negative = inhibition, actives largely listed as inhibitors; 330,000 tested, 0.01% active; USP2 core, Ub-CHOP2 coupled fluorogenic reporter, 485/531; O75604;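 further: potency means the concentration at half of the fitted maximal effect; plate controls were DMSO wells for no effect and full inhibition by NEM control for full effect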
#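 USP2 core (10nM final) preincubated 30min RT with compound in 20mM Tris-HCl pH 8.0, 2mM CaCl2, 2mM beta-mercaptoethanol, 0.05% CHAPS; 25nM Ub-CHOP2 plus 25nM reporter substrate added, fluorescence (Ex485/Em531) read after 60min.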
# PTHR1 ag = agonists of human PTHR1 parathyroid hormone receptor. Q03431. HEK293 GP2 PTHR1 cells, GloSensor cAMP luminescence, 1 h. Potency, µM (highest dose often 115 µM), for inactives: at the highest dose activation, usual class: activators. 410,000 tested, 0.075% active; further: potency means the concentration at half of the fitted maximal effect; nearly all actives have a fitted effect of over 55% in size
#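 HEK-293-derived GP2 cells expressing PTHR1 and a GloSensor cAMP reporter, 3,000/well, plated overnight, given luciferin plus IBMX (each 0.5 mM as added) for 1 h at 37 °C, then compound for 1 h at 37 °C. Luminescence was read after 15 min at room temperature.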
# miR-21 reporter = miR-21 reporter, rising signal; HeLa miR-21 FLuc reporter, luciferase, 48 h; Potency, µM (titrated, usually from 38.3 µM), for the others: at the top dose reporter change, positive = more light; 340,000 tested, under 10 active; AID 2288; active = well fitted rising curve with a large enough effect; inconclusive = small, poorly fitted or top-dose-only effect; inactive = no such curve, though single readings can be large or run the other way;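 also: % of control where 0% means no effect; miR-21 action dims this reporter so a rising signal means less miR-21 action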
#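 Luminescence from a firefly luciferase reporter carrying a miR-21 binding site downstream, stably expressed under a CMV promoter in HeLa cells that make miR-21 endogenously, reports miRNA modulation after 48 h compound exposure up to approximately 40uM final.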
# Eya2 phos inh = blocks the phosphatase activity of human Eya2; recombinant Eya2, OMFP fluorescence dephosphorylation (OMFP is methylfluorescein phosphate); 330,000 tested, 0.006% active; AID 488837; O00167; Potency, µM (series often up to 76.9 µM), for the others: at the highest dose activity, negative = inhibition, most hits filed as inhibitors; further: potency means the concentration at half of the fitted maximal effect; on the % scale 0 is the no-effect control and ±100 the full control effect
#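 Eya2 (0.2 uM) preincubated 10 min at ambient with compound, then OMFP substrate added at 50 uM; 10 min reaction in 50 mM HEPES pH 7.5, 50 mM NaCl, 5 uM MgCl2, 0.05% BSA, 1 mM DTT. Fluorescence read at Ex 485/Em 525 nm.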
# TSG101-PTAP inh = blocks PTAP/TSG101 interaction to inhibit HIV-1 budding. Q99816. 340,000 tested, under 10 active. Fluorescence polarization, FITC-PTAP peptide / Tsg101 binding. Potency, µM (highest dose often 115 µM), inactives show at the top dose activity change, negative = inhibition, hits mostly inhibitors; active means well fitted inhibition curve with a large enough effect in the main read-out, with a control signal flat, not every such curve was filed as active; inconclusive means small, poorly fitted or top-dose-only effect, or effect the other way, or a change in a side signal; inactive means no such curve, though single readings can be large or run the other way; further: potency means the concentration at half of the fitted maximal effect; % of control where 0% means no effect
#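 Compounds were pin-transferred onto Tsg101 binding domain (10 uM final) in HEPES pH 7.5 buffer, then FITC-PTAP peptide was added at 50 nM final. After 20 min at RT, polarization reported peptide displacement across a qHTS concentration series.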
# GLS inh = inhibitors of human glutaminase (GLS). GLS enzymatic activity, qHTS titration. Potency, µM (series often up to 45.5 µM), for the others: at the highest dose activity change, negative = inhibition, most hits filed as inhibitors. 410,000 tested, 0.21% active. AID 624170; further: potency means the concentration at half of the fitted maximal effect; on the % scale 0 is the no-effect control and ±100 the full control effect
#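 Human kidney-isoform GLS in 45 mM KH2PO4 pH 8.2, 0.02% Tween-20, with compound, started with 1mM L-Glutamine (added stock). Glutamate oxidase/HRP/Amplex red coupled fluorescence read at start and after 30 min at RT.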
# * hit, by the source's call; i = inactive; ? = inconclusive; . = not tested or not shown; [ ] = remark or other dose. This is a sample that favours compounds with a hit; in the whole collection about 0.24% have one here. Unless noted, the call rests on the fitted dose curve; in most records, active means well fitted curve in the direction sought with a large enough effect; inconclusive means small, poorly fitted or top-dose-only effect, or another doubt; inactive means no such curve, though single readings can be large; an effect the other way counts as inactive or inconclusive.
SMILES,USP2a block,PTHR1 ag,miR-21 reporter,Eya2 phos inh,TSG101-PTAP inh,GLS inh
O=[N+]([O-])c1cccc(N/N=C/c2cccc(O)c2O)c1,-2.7%,-36.5%,-63.7%,-3.3%,-0.3%,7.94µM*
O=[N+]([O-])c1ccccc1N/N=C/c1cccc(O)c1O,8.7%,-8.6%,-101.5%,8.9%,-6.7%,20.3%
Cc1ccc(NC(=O)CN2C(=O)N/C(=C/c3cccn3-c3ccc(C(=O)O)cc3)C2=O)cc1,-0.1%,i,-6.6%,-0.3%,-15.3%,5.01µM*
COc1ccc(CN2C(=O)C(NC(=O)c3ccccc3C)(C(F)(F)F)N=C2c2ccccc2)cc1 (configuration not stated),.,-3.2%,17.4%,.,.,-5.3%
O=C(O)c1cc2nccc(-c3ccco3)n2n1,10.3%,-20.3%,-1.7%,-8.3%,-5.4%,11.2µM*
COc1ccc(-c2ccnc3cc(C(=O)O)nn23)cc1,3.3%,-8.3%,0.6%,2.4%,0.6%,?
COc1ccc(C(C[N+](=O)[O-])c2c(-c3ccccc3)cc3ccccn23)cc1OC (configuration not stated),.,-13.5%,-3.6%,.,-1.8%,-11.7%
COc1cc(C(C[N+](=O)[O-])c2c(C)cc3ccccn23)ccc1O (configuration not stated),-1.7%,-37.9%,16.4%,-0.8%,-0.8%,7.94µM*
CC1CCN(S(=O)(=O)c2ccc(NC(=O)C3CCCCC3C(=O)O)cc2)CC1 (configuration not stated),.,i,.,.,-0.7%,11.2µM*
CCc1ccc(NC(=O)c2cc(CN3CCOCC3)on2)cc1,.,-63.7%,-36.3%,.,.,-7.5%

# The list goes on, overlapping the part above by 2 compounds.
SMILES,USP2a block,PTHR1 ag,miR-21 reporter,Eya2 phos inh,TSG101-PTAP inh,GLS inh
CC1CCN(S(=O)(=O)c2ccc(NC(=O)C3CCCCC3C(=O)O)cc2)CC1 (configuration not stated),.,i,.,.,-0.7%,11.2µM*
CCc1ccc(NC(=O)c2cc(CN3CCOCC3)on2)cc1,.,-63.7%,-36.3%,.,.,-7.5%
O=C(CCc1nnc2n(Cc3ccc(Cl)cc3)c(=O)c3ccccc3n12)N1CCN(c2ccccn2)CC1,-0.1%,i,-1.4%,-27.1%,-0.6%,11.2µM*
CC(C)OCCCn1c(=O)c2ccccc2n2c(CCC(=O)N3CCN(c4ccccn4)CC3)nnc12,0.5%,i,-0.2%,2.7%,-5.7%,3.6%
CCc1ccc(N2CCn3c2nc2c3c(=O)n(CCc3ccccc3)c(=O)n2C)cc1,.,50.1µM*,7.7%,.,.,-10.1%
CCc1ccc(N2CCn3c2nc2c3c(=O)n(CCCc3ccccc3)c(=O)n2C)cc1,.,-11.7%,-2.1%,.,.,-8.9%
Cc1ccc2nc(N)[nH]c(=O)c2c1Sc1ccncc1,.,.,.,.,.,3.4%
Cc1ccccc1C(=O)N/N=C/c1ccc(Sc2ccccn2)o1,2.3%,-24.9%,-9.6%,.,-2.0%,-0.8%
O=C(N/N=C\c1ccc(Sc2ccccn2)o1)c1cccc(Br)c1,-1.8%,?,-7.5%,3.16µM*,-1.6%,1.8%
Cc1cc(C(=O)NNC(=O)/C=C/c2ccco2)c(C)o1,-0.6%,-15.3%,.,-3.0%,-2.1%,10µM*
COc1ccccc1/C=C/C(=O)NNC(=O)c1cc(C)oc1C,-0.5%,-7.8%,.,-7.7%,-2.3%,3.9%
O=C1NC(=S)S/C1=C\c1ccc(SCc2ccccc2)o1,1.5%,-36.6%,4.5%,-0.9%,2.5%,?
O=C1NC(=S)S/C1=C\c1ccc(SCc2ccco2)o1,2.6%,i,-3.8%,5.0%,17.0%,11.2µM*
CCOC(=O)N1CCc2c(sc(NCc3cccc(F)c3)c2C(=O)Nc2ccc(OC)cc2OC)C1,.,i,?,.,.,25.3%
CCCCCCCCCCCCCCCC[N+](C)(C)CCN(Cc1ccc(OC)cc1)c1ncccn1,10µM*,-19.8%,.,?,0.8%,?
O=C(N/N=C/c1cccs1)c1ccc2ccccc2c1,0.8%,i,-15.3%,-5.7%,-0.2%,-3.2%
O=C(N/N=C/c1cccs1)c1cccc2cc[nH]c12,2.5%,i,-32.3%,25.1µM*,-10.3%,2.0%
Cc1onc(-c2c(F)cccc2Cl)c1C(=O)N[C@@H]1C(=O)N2[C@H]1SC(C)(C)[C@H]2C(=O)O,.,.,.,.,.,3.55µM*
Cc1onc(-c2ccccc2Cl)c1C(=O)N[C@H]1C(=O)N2[C@H]1SC(C)(C)[C@H]2C(=O)O,.,.,.,.,.,-21.5%[20 µM]
CC1(C)SC2C(N3C(=O)C(c4ccccc4)NC3(C)C)C(=O)N2C1C(=O)O (configuration not stated),.,.,.,.,.,28.2µM*
CC1(C)S[C@@H]2[C@H](NC(=O)C(C(=O)O)c3ccccc3)C(=O)N2[C@H]1C(=O)O (some centres not stated),5.0%,-6.4%,4.6%,1.9%,-1.8%,-26.8%
CCN1CCN(C(=O)N[C@H](C(=O)N[C@@H]2C(=O)N3[C@@H](C(=O)O)C(C)(C)S[C@@H]23)c2ccccc2)C(=O)C1=O,.,.,.,.,.,25.1µM*
CC1(C)S[C@H]2C(NC(=O)[C@@H](N)c3ccc(O)cc3)C(=O)N2[C@@H]1C(=O)O (some centres not stated),.,.,.,.,.,14.1µM*
Cn1c(=O)c2sccc2n2c(CCC(=O)N3CCN(c4ccc(F)cc4)CC3)nnc12,.,.,0.7%,.,.,.
CCc1nnc(SCC(=O)N(C)c2ccccc2)c2cc3sccc3n12,.,-50.1%,-11.8%,.,.,-3.8%
CC1(C)S[C@@H]2[C@H](NC(=O)[C@H](N)c3ccccc3)C(=O)N2[C@H]1C(=O)O,9.6%,-24.1%,-6.3%,2.5%,-2.5%,10µM*
COc1ccc(-c2csc(N3CCN(C(=O)c4ccco4)CC3)n2)cc1,11.2µM*,-49.5%,-12.5%,0.9%,0.0%,4.9%
COc1ccc(OC)c([C@@H]2Nc3ccc(C(=O)O)cc3[C@@H]3C=CC[C@@H]32)c1,.,-15.6%,0.3%,.,.,?
O=C(O)c1ccc2c(c1)[C@@H]1C=CC[C@@H]1[C@H](c1ccccn1)N2,.,i,.,.,-18.6%,2.82µM*
Cc1cc(Cl)ccc1N1C(=O)CC(NNC(=O)c2cccnc2)C1=O (configuration not stated),3.4%,i,-3.3%,4.7%,-5.7%,7.08µM*
O=C(NNC1CC(=O)N(c2cccc(Cl)c2)C1=O)c1cccs1 (configuration not stated),-0.2%,i,-11.3%,-6.9%,-2.7%,?
Cc1ccc(O)c(Nc2c3ccccc3nc3ccccc23)c1,1.5%,-29.4%,-1.2%,-4.5%,-1.2%,8.91µM*
Brc1ccc(-c2csc(N3CCCCC3)n2)cc1,0.0%,.,.,-1.5%,.,.
CCOC(=O)C1Nc2ccccc2C2c3ccccc3CC12 (configuration not stated),.,17.5%,.,.,-2.4%,14.1µM*
CC(C(=O)Nc1ccc(OC(F)(F)F)cc1)N1Cc2ccccc2C1=O (configuration not stated),.,50.1µM*,1.4%,.,.,?

# One compound at a time, as listed above. Order of screens: USP2a block	PTHR1 ag	miR-21 reporter	Eya2 phos inh	TSG101-PTAP inh	GLS inh
# Cc1cc(Cl)ccc1N1C(=O)CC(NNC(=O)c2cccnc2)C1=O (configuration not stated) is entered as 3.4%	i	-3.3%	4.7%	-5.7%	7.08µM*
# CC1(C)S[C@H]2C(NC(=O)[C@@H](N)c3ccc(O)cc3)C(=O)N2[C@@H]1C(=O)O (some centres not stated) is entered as .	.	.	.	.	14.1µM*
# CC(C(=O)Nc1ccc(OC(F)(F)F)cc1)N1Cc2ccccc2C1=O (configuration not stated) is entered as .	50.1µM*	1.4%	.	.	?

# Screening results: PubChem BioAssay, National Center for Advancing Translational Sciences (NCATS)
